The text below walks through data of patent publication US11440939B2, “Anticancer peptides” (IDP DISCOVERY PHARMA, S.L., priority 2017, dated 2022).

Molecules are shown by their SMILES.

What all share (format): cell-based
In one test the test system is NCI-H82. Particulars: 72 h. The protocol:
NCI-H82, epithelial (small cell lung cancer, SCLC), ATCC-CRL-5811;
(§1) Cell line MCF-7 was cultured in incubator under CO2 (6%) at 37° C. in DMEM high glucose (Dulbecco's Modified Eagle Solution, Gibco-BRL 31966-21) medium with 10% fetal bovine serum inactivated (FBS) (Gibco-BRL 10106-169). Cell lines HL-60, NCI-H524, NCI-H526, NCI-H69, NCI-H82, NCI-H187 and H5B were cultured in an incubator at 37° C. in RPMI-1640 (Sigma R8758) medium with 10% of fetal bovine serum inactivated (FBS) and 2 mM glutamine (Sigma G7513). Cell line NCI-H510A was cultured in incubator in F12K medium with 10% of fetal bovine serum inactivated (FBS). […]
(§2) During the amplification step and the assays, adherent cells were rinsed with DPBS (Dulbecco's Phosphate Buffered Saline, Sigma D1283) three times and afterward treated for 5 minutes with trypsin ([…]) (Gibco-BRL, 15400054) in solution of DPBS at 37° C., and, once detached, transferred in the culturing medium. […] Cells were counted in a Neubauer chamber after labelling with Tripan-Blue. […]
(§3) Cells were incubated during 72 h in incubator under CO2 atmosphere at 37° C. Cell viability was measured by means of MTT (3-(4,5-dimethylthiazol-2-yl)-2,5-diphenyltetrazolium bromide) assay, Alamar Blue® (Biosource DAL1100) and Hexosaminidase activity test, consecutively, following manufacturer instructions.
(§4) MTT: 1. […] Absorbance at 570 nm was finally measured. […]

Another test has as its system NCI-H187. Particulars: 72 h. Here is the method:
NCI-H187, epithelial (small cell lung cancer, SCLC), ATCC-CRL-5804;
as §1, §2, §3, §4

In the next test the test system is cancer cell lines. The test can be described thus: Inhibition of cancer cell proliferation, general statements. Here is the method: MCF-7, NCI-H187, NCI-H69, NCI-H526 and H5B cells were seeded at a density of 5000 cells/well; NCI-H524 and NCI-H82 were seeded at a density of 2500 cells/well; HL-60 and NCI-H510A at 10000 cells/well in 100 μl of medium in 96 well plates. After 24 h, the compounds to be tested were added to calculate the dose/response curve at the starting concentration of 100 μM with serial dilutions (1:1). Controls were the untreated cells. Each experiment was performed in triplicate.
as §3
Data analysis was performed calculating the percentage of cell viability normalized vs. the values of negative control, which was considered equal to 100%. The dose/response curve was fitted through the sigmoidal equation dose-response (variable slope) and the EC50 values were calculated as follow: Y=Bottom+(Top−Bottom)/(1+10^{[(Log EC50−X)*HillSlope]},

For orientation: EC50 means the concentration needed to bring the measured effect to its halfway point. A low value points to higher potency in that assay. As for `CC(C)C[C@H](NC(=O)[C@H](CC(N)=O)NC(=O)[C@@H](NC(=O)[C@H](CC(C)C)NC(=O)[C@H](CCCCN)NC(=O)[C@@H](NC(=O)[C@@H](N)CCCNC(=N)N)C(C)C)C(C)C)C(=O)NCC(=O)N[C@@H](Cc1ccccc1)C(=O)N[C@@H](C)C(=O)N[C@H](C(=O)N[C@@H](CC(C)C)C(=O)N[C@@H](CCCNC(=N)N)C(=O)N[C@@H](CCC(=O)O)C(=O)N[C@@H](Cc1c[nH]cn1)C(=O)N[C@H](C(=O)N1CCC[C@H]1C(N)=O)C(C)C)[C@@H](C)O` [LH01, reference compound], the EC50 in the test with NCI-H82 and in the test with NCI-H187 was over 100 µM each time. In the test on cancer cell lines, the “inhibition of cancer cell proliferation (in words)” value is listed as “not effective”.
